dFosB act: enhances mouse delta FosB homodimer DNA binding | AID 493131 | purified delta FosB, TAMRA-CDK5 oligo fluorescence polarization; percent of positive-control signal above neutral wells | activation, % at 25 µM | actives 0.99% (n = 340,000);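 active = mean activation above about 17%, with every replicate also reaching it, limit read from the data, passing the limit was not always enough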
CAL PDZ FP-1: blocks peptide binding to the human CAL PDZ domain; Q9HD26; purified CAL PDZ, TMR-peptide fluorescence polarization, 1 h; actives 0.92% (n = 300,000); inhibition, % at 24.9 µM;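 active = mean inhibition of at least 30% with at least half of replicates also reaching 30%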;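 note: 0% = DMSO neutral control and 100% = excess unlabeled competitor peptide PRC23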
CDK5 inh: CDK5/p35 (human) kinase inhibition | Q00535+Q15078 | Recombinant CDK5/p35, ADP-Glo luminescence, 60 min | inhibition, % at 10 µM | actives 0.01% (n = 330,000) | AID 488839;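 active = highest replicate inhibition of at least 50% and at least 75% of replicates reaching 50%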;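 note: plate controls were DMSO neutral control for no effect and GW8510 at 10 µM for full effect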
Yeast UUG start: modulators of start codon recognition fidelity in yeast. S. cerevisiae UUG-firefly luciferase reporter, luminescence/redox ratio. activity score, % at 18.7 µM. 0.13% of 350,000 active. AID 602363;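 active = replicate mean at a twofold rise or more, about +100% in these data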;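 also: firefly luciferase made from a UUG start codon reports start codon fidelity; reporter light over untreated wells divided by growth signal over untreated wells; some hits fall short of that in this replicate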
CAL PDZ FP-2: inhibitors of human CAL PDZ peptide binding | Q9HD26 | purified CAL PDZ, TMR-peptide fluorescence polarization, 1 h | inhibition, % at 20 µM | actives 0.02% (n = 330,000);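 active = highest replicate inhibition of at least 40%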;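 note: plate controls were DMSO neutral control wells for no effect and unlabeled competitor peptide control wells for full effect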
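Test system: purified CerCALP PDZ construct; Compound dosing: one concentration, 20 µM compound; Also added: TMR-labelled reporter peptide T*-PRC34 bound in PDZ groove; Read-out: inhibition from polarization loss; Controls: unlabelled peptide and DMSO controls; Signal: FP readout, S and P plane fluorescence; Incubation: 1 h at RT.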
DYRK1A inh: blocks rat Dyrk1A kinase activity. ADP-Glo luminescence, NFATc1 peptide. actives 0.43% (n = 310,000). inhibition, % at 12.5 µM. Q63470; in the data active = inhibition above about 50%;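 note: plate controls were vehicle with enzyme for no effect and no enzyme for full effect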
Active calls of the source: *; · = not tested or not shown. Shown are actives, neighbours in structure and some others; about 1.7% of the full set was active somewhere.

A first look, 4 compounds:
nr	dFosB act	CAL PDZ FP-1	CDK5 inh	Yeast UUG start	CAL PDZ FP-2	DYRK1A inh	SMILES
1	·	·	·	0.4	·	·	C[C@@H](NC(=O)C[C@@H]1C=C[C@H](NC(=O)CN2CCOCC2)[C@@H](CO)O1)c1ccccc1
2	7.5	34.9*	-2.3	·	-1.1	-1.5	C=CCN1C=CC=C/C1=C1\SC(=S)N(C)C1=O
3	·	·	·	-6.4	·	·	C[C@@H]1CN([C@@H](C)CO)S(=O)(=O)c2ccc(-c3cccnc3)cc2O[C@@H]1CN(C)C(=O)NC1CCCC1
4	3.1	72.0*	1.5	-11.6	-1.5	0.5	COc1cccc(NC(=O)CCS(=O)(=O)c2cccs2)c1

The whole of this part, repeating the preview:
nr	dFosB act	CAL PDZ FP-1	CDK5 inh	Yeast UUG start	CAL PDZ FP-2	DYRK1A inh	SMILES
1	·	·	·	0.4	·	·	C[C@@H](NC(=O)C[C@@H]1C=C[C@H](NC(=O)CN2CCOCC2)[C@@H](CO)O1)c1ccccc1
2	7.5	34.9*	-2.3	·	-1.1	-1.5	C=CCN1C=CC=C/C1=C1\SC(=S)N(C)C1=O
3	·	·	·	-6.4	·	·	C[C@@H]1CN([C@@H](C)CO)S(=O)(=O)c2ccc(-c3cccnc3)cc2O[C@@H]1CN(C)C(=O)NC1CCCC1
4	3.1	72.0*	1.5	-11.6	-1.5	0.5	COc1cccc(NC(=O)CCS(=O)(=O)c2cccs2)c1
5	·	·	·	-9.9	·	·	C[C@@H]1CCCCO[C@H](CN(C)C(=O)Nc2ccc(F)cc2)[C@@H](C)CN([C@@H](C)CO)C(=O)c2cc(NC(=O)NC3CCCCC3)ccc2O1
6	-1.4	0.8	-0.1	·	0.2	·	CC(=O)C(Cc1ccccc1)NC(=O)CCl (configuration not stated)
7	3.1	100.5*	-2.1	-4.6	32.5	6.2	CC(=O)NC(Cc1ccccc1)C(C)=O (configuration not stated)
8	-3.3	79.5*	-1.9	·	·	0.6	O=C(NCC1CCCO1)c1ccc2c(=O)n(Cc3ccco3)c(SCC(=O)N3CCCC3)nc2c1 (configuration not stated)
9	-8.5	-3.9	0.4	-14.2	-1.0	-1.4	CCOC(=O)CSc1nc2cc(C(=O)NCC3CCCO3)ccc2c(=O)n1Cc1ccco1 (configuration not stated)
10	·	·	·	14.0	·	·	O=C(Cc1ccncc1)NCC[C@@H]1CC[C@@H](NC(=O)C2CCCCC2)[C@H](CO)O1
11	0.1	44.0*	0.0	-6.1	-1.4	7.1	O=C(CSc1nnc(-c2c[nH]c3ccccc23)o1)NCC1CCCO1 (configuration not stated)
12	173.1*	-0.8	-0.1	-11.3	-3.6	8.9	Cc1nc2ccc3nc(NC(=O)c4ccc5c(c4)OCCO5)sc3c2s1
13	35.0*	-4.7	0.0	-3.3	-1.8	2.2	N=c1n(CC(=O)c2ccc(Br)cc2)c2ccccc2n1Cc1ccccc1
14	21.0*	-6.0	2.0	-9.7	-1.9	2.0	O=C(Cn1c2ccc(F)cc2c2nc3n(c(=O)c21)CCS3)Nc1ccc(Cl)cc1F
15	·	·	·	12.8	·	·	C[C@@H]1CCCCO[C@@H](CN(C)Cc2ccc3c(c2)OCO3)[C@H](C)CN([C@@H](C)CO)C(=O)c2cc(N(C)C)ccc2O1
16	·	·	·	-13.3	·	·	O=S(=O)(c1ccccc1F)N1CC[C@@H]2[C@@H](CO)Nc3ccc(-c4ccc(F)cc4)cc3[C@@H]21
17	-12.4	79.4*	-0.8	·	-0.3	0.1	CCCCCCC(=O)Oc1cccc(N2C(=O)C3CCCCC3C2=O)c1 (configuration not stated)
18	-7.8	-2.9	-3.1	-11.1	191.2*	3.8	COc1ccc(-c2csc(N(Cc3ccco3)C(=O)c3cccs3)n2)cc1
19	-0.2	43.9*	1.4	-15.6	-0.4	1.3	CCCCN(CC)CCNC(=O)Cn1cnc2sc(C)c(S(=O)(=O)N3CCC(C)CC3)c2c1=O
20	-5.9	-3.6	1.6	-3.6	0.1	-8.0	CCCCN(CC)CCNC(=O)Cn1cnc2sc(C)c(S(=O)(=O)N3CCOCC3)c2c1=O
21	45.5*	0.9	-0.2	-8.5	-1.1	7.7	O=C(N/N=C/c1cccnc1)c1ccc(NC(=O)c2cccc(Cl)c2)cc1
22	-7.0	-2.5	-0.2	·	-1.4	-0.5	O=C(N/N=C/c1cccnc1)c1ccc(Cl)c(Cl)c1
23	70.7*	0.8	2.6	-8.2	-0.5	-7.7	O=C(N=Nc1c(O)[nH]c2ccccc12)c1cc(-c2cccs2)[nH]n1
24	62.8*	·	-4.8	·	-1.1	-0.1	O=C(N=Nc1c(O)[nH]c2ccccc12)c1cc(-c2ccc(F)cc2)n[nH]1
25	·	·	·	0.9	·	·	Cc1noc(C)c1NC(=O)Nc1ccc2c(c1)C(=O)N(C)[C@H]1CC[C@@H](CC(=O)N(C)C)O[C@@H]1CO2
26	41.2*	2.5	0.5	·	-9.5	0.2	O=C(N/N=C/c1cccc(O)c1)c1cc(-c2ccc3c(c2)OCO3)n[nH]1
27	11.1	-3.0	-0.4	-21.8	-2.0	2.6	O=C(N/N=C/c1ccccc1)c1cc(-c2ccc3c(c2)OCO3)n[nH]1
28	-9.0	39.7*	1.7	3.7	-1.4	·	CC1CCCN(C(=O)c2ccc(COc3ccccc3Br)cc2)C1 (configuration not stated)

Assay outcomes as filed in PubChem BioAssay.
